{
  "source": "paper PMC4580987",
  "about": "“Catalytic site inhibition of insulin-degrading enzyme by a small molecule induces glucose intolerance in mice” (Nature Communications, 2015)",
  "key": {"IDE [1]": {"molecular_target": "T1, IDE (Homo sapiens, UniProt P14735)", "T1 sequence (P14735 1-1019)": "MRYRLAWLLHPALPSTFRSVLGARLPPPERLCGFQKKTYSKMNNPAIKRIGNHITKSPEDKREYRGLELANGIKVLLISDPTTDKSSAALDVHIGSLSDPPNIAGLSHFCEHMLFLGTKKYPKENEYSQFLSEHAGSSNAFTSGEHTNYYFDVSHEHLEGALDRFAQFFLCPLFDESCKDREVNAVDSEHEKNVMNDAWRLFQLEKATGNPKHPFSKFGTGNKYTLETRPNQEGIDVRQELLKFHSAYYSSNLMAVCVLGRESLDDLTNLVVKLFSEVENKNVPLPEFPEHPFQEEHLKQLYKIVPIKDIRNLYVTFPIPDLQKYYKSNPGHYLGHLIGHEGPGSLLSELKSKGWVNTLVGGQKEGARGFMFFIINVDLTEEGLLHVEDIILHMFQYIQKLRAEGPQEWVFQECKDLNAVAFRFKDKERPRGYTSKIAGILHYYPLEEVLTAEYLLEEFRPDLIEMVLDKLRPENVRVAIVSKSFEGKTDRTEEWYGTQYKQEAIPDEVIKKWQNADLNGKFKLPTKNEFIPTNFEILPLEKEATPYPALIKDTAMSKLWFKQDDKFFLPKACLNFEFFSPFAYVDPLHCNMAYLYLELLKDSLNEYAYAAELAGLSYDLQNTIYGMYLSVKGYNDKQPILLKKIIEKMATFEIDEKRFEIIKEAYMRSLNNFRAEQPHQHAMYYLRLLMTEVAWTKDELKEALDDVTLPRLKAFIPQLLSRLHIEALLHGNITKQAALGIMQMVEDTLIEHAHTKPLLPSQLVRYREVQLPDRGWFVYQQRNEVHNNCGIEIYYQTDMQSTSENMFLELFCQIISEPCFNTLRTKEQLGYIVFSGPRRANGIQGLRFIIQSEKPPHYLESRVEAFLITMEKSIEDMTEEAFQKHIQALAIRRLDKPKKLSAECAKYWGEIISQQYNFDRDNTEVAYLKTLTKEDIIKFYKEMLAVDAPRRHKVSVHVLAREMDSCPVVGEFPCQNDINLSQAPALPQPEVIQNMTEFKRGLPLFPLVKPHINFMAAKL", "test": "Reversibility of IDE inhibition by rapid dilution", "format": "biochemical", "conditions": "compound at IC50 × 10"}, "C57BL/6J mice": {"tested_on": "C57BL/6J mice", "test": "Oral glucose tolerance test (OGTT) in C57BL/6J mice", "format": "in vivo, mouse", "conditions": "50 mg kg^−1 ip, 3 g kg^−1 oral glucose", "description": "OGTT and IPGTT were performed on 11 to 16 week-old male or female mice (n=4–7 per experimental group). C57BL/6J mice were purchased from Charles River Laboratories (France), Stock no. 000664. C57BL/6J Ide−/− mice were obtained from Guenette[20] and bred in the animal facility of INSERM U1151. WT C57BL/6J mice of the same genetic background were bred in the same animal facility in parallel. NOD Ide−/− mice were generated by backcrossing C57BL/6J Ide−/− mice with NOD wt mice bred in the animal facility of INSERM U1151 and maintained in this facility together with WT NOD mice. Normoglycemic WT and Ide−/− female NOD mice aged 14 weeks were used for OGTTs. Following a 6 h fasting period, a small tail cut was made, basal blood glucose was determined. […] Fifteen minutes later, blood glucose concentrations were measured before and after (up to 120 min, as shown) oral (2 g kg^−1 or 3 g kg^−1, as shown) or intraperitoneal (1.5 g kg^−1) glucose administration. […] Blood glucose levels were determined using an Accu-Check glucometer (Roche Diagnostics). Areas under the curves (AUC) for OGTT and IPGTT were calculated to evaluate glucose tolerance. Plasma insulin concentrations were measured by ELISA (cat. no. 10-1247-01,Mercodia) in blood samples collected 15 min before and 15 and 90 min relative to oral glucose injection. […]"}, "isolated mouse islets": {"tested_on": "isolated mouse islets", "conditions": "1 versus vehicle", "description": "Digestion was stopped by addition of cold HBSS with 10% FCS. The islets were washed twice in HBSS with FCS and once in RPMI with FCS. […] The next day, the islets were incubated in fresh DMEM with 10% FCS without glucose for 90 min. Then glucose at 2.8 mM together with BDM44378 was added; after 1 h, the supernatant was removed and replaced by fresh medium with 28 mM glucose, followed by another 1-h incubation in the presence or absence of inhibitor."}, "IDE [2]": {"molecular_target": "T1, IDE", "test": "19F NMR ligand-observed interaction with the enzyme", "format": "binding", "parameters": "made in house", "conditions": "5 μM enzyme", "description": "The ^19F NMR measurements were done at 20 °C using 3 mm tubes containing 200 μl of sample on a Bruker 600 MHz Avance I spectrometer equipped with a CP-QCI-F cryoprobe with Fluor Cryo-detection. ^19F NMR experiments were done on control samples with compound 1 or compound 16 at 50 μM, 37.5 μM, 25 μM, 12.5 μM and 6.25 μM, in a 50 mM Hepes 100 mM NaCl buffer with a constant percentage (1%) of DMSO. […] The carrier frequency was set at −100 p.p.m. with a spectral window of 40 ppm, and 4,024 scans were recorded per sample, except for the 6.25 μM sample for which 12,288 scans were recorded."}},
  "data": [
    {"compound": "O=C(C[C@@H](Cc1ccc2ccccc2c1)n1cc(CNC(=O)c2ccc(F)cc2)nn1)NO", "note": "[Compound 1]", "values": [
      {"measurement": "enzyme activity after rapid 100-fold dilution of enzyme–inhibitor mixture (reversibility)", "setting": "IDE [1]", "result": "fully recovered"},
      {"measurement": "AUC of glycaemia in OGTT, WT C57BL/6J", "setting": "C57BL/6J mice", "result": "significantly increased"},
      {"measurement": "ratio of stimulation of insulin secretion by low and high glucose", "setting": "isolated mouse islets", "result": "not altered"},
      {"measurement": "19F NMR signal in the presence of enzyme at 2:1 or 1:1 compound:enzyme ratio", "setting": "IDE [2]", "result": "vanishing signal"}
    ]}
  ]
}
